Columns and labels:
Aurora Kinase A = Aurora Kinase A (Homo sapiens, UniProt O14965); test: Biochemical enzyme assay for Aurora A activity (Caliper LC3000 / Desktop Profiler mobility shift); settings: read-out: Aurora Kinase A IC50 in nM; GST-Aurora A, 15 μM ATP, 90 min at 25° C.; LC3000 or Desktop Profiler
Aurora Kinase B = Aurora Kinase B (Homo sapiens, UniProt Q96GD4); test: Biochemical enzyme assay for Aurora B activity (Caliper mobility shift); settings: read-out: Aurora Kinase B IC50 in nM; LC3000 or Desktop Profiler
Protocol: The Aurora assays described here were performed on two Caliper Life Sciences systems, the LC3000 and the Desktop Profiler. These provide data on enzyme activity via measurement of the relative amounts of phosphorylated or unphosphorylated fluorescently labelled substrate peptide at the end of an enzymatic reaction. These different states of peptide are resolved by applying a potential difference across the sample. The presence of a charged phosphate group on the product (as opposed to the substrate) causes a different peptide mobility between the two peptides. This is visualized by excitation of a fluorescent label on the substrate and product peptides and represented as peaks within the analysis software.
The Desktop Profiler utilizes the same prinicipal as the LC 3000 for calculating percentage conversion of a substrate to product. Caliper Life Sciences provided proprietary flash frozen pre-made 384 well plates containing selected kinases. Each column in the 384 well plate contained a particular selected kinase. A second plate, the ‘substrate plate’ contained a mix of fluorescently labeled peptide substrate and ATP. These were arranged in columns so that transfer for substrate plate to enzyme plate provided the correct enzyme with the correct substrate/ATP concentration.
Compounds were added to a thawed enzyme plate in the desired format, in single concentrations. Reactions were initiated by transfer of the substrate/ATP mix from the substrate plate. The enzyme plate was incubated for 90 mins at 25° C. The reaction was stopped by addition of 70 μl of Stop Buffer (100 mM HEPES pH 7.5, 0.015% Brij-35, 10 mM EDTA (Sigma, E7889)).
Plates were read in a manner identical to that of the LC3000, and the ratio between substrate and product peaks provided the activity of the enzyme in that well. This was best represented by a plate heat map which colors each well by percent inhibition as compared to positive and negative controls (no inhibitors and no ATP respectively).

Sequences of proteins named here, by UniProt entry; tags and fusion partners are left off.
UniProt O14965, whole entry: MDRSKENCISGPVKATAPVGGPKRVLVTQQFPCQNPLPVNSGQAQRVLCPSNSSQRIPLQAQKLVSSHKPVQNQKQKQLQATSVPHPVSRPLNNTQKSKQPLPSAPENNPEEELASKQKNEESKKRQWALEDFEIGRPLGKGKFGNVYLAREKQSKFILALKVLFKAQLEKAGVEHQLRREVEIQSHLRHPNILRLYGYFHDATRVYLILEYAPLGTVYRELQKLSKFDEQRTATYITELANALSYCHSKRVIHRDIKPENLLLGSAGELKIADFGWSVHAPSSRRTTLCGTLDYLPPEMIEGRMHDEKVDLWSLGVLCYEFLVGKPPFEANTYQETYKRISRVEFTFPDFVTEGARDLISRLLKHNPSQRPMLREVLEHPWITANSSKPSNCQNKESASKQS
UniProt Q96GD4, whole entry: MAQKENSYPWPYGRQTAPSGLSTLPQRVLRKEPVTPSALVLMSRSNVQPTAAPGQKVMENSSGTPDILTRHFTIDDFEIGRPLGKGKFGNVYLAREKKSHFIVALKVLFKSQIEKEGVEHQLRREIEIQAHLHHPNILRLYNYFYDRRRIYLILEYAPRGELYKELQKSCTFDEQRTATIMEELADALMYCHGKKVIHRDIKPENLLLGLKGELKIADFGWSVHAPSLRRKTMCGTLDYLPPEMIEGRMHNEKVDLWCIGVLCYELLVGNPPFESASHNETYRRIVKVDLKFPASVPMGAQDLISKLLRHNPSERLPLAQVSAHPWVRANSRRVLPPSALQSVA

SMILES	IC50 (Aurora Kinase A)	IC50 (Aurora Kinase B)
O=C(Nc1ccc(Nc2ccnc3nc(OCCCN4CCOCC4)ccc23)cc1)c1ccccc1	1 to 300 nM	–
Cc1ccc(C(=O)Nc2ccc(Nc3ccnc4[nH]c(=O)ccc34)cc2)cc1	1 to 300 nM	–
O=C(Nc1ccc(Nc2ccnc3[nH]c(=O)ccc23)cc1)c1ccc(C(F)(F)F)cc1F	> 1000 nM	–
O=C(Nc1ccc(Nc2ccnc3[nH]c(=O)ccc23)cc1)c1c(Cl)cccc1Cl	1 to 300 nM	–
CN(C)C1CCN(c2ccc3c(Nc4ccc(NC(=O)c5ccccc5)cc4)ccnc3n2)C1 (centres unmarked)	1 to 300 nM	–
Cc1cccc(C(=O)Nc2ccc(Nc3ccnc4[nH]c(=O)ccc34)cc2)c1	> 1000 nM	601 to 1000 nM
COc1ccccc1C(=O)Nc1ccc(Nc2ccnc3[nH]c(=O)ccc23)cc1	> 1000 nM	> 1000 nM
O=C(Nc1ccc(Nc2ccnc3[nH]c(=O)ccc23)cc1)c1cc(F)cc(C(F)(F)F)c1	> 1000 nM	–
O=C(Nc1ccc(Nc2ccnc3[nH]c(=O)ccc23)cc1)c1ccc(Cl)cc1Cl	> 1000 nM	–
Cc1ccccc1C(=O)Nc1ccc(Nc2ccnc3[nH]c(=O)ccc23)cc1	> 1000 nM	301 to 600 nM
O=C(Nc1ccc(Nc2ccnc3nc(OCCN4CCCC4)ccc23)cc1)c1ccccc1	> 1000 nM	–
O=C(Nc1ccc(Nc2ccnc3[nH]c(=O)ccc23)cc1)c1ccc(Cl)cc1	> 1000 nM	–
O=C(Nc1ccc(Nc2ccnc3nc(OCCN4CCOCC4)ccc23)cc1)c1ccccc1	1 to 300 nM	–
O=C(Nc1ccc(Nc2ccnc3[nH]c(=O)ccc23)cc1)c1ccc(Cl)c(Cl)c1	> 1000 nM	–

From patent US20110269758A1, “NAPHTHYRIDINONES AS PROTEIN KINASE INHIBITORS” (MERCK PATENT GMBH, priority 2008, published 2011)
